# Literature values, collected in US9545418B2, “ON01910.Na enhances chemotherapeutic agent activity in drug-resistant tumors” (THE JOHNS HOPKINS UNIVERSITY, priority 2008, dated 2017).
# Several values for one entry are separate records, joined by “and”; a condition that tells them apart may be missing. Equal values may be shown once. Read-outs that look alike come from different tables or passages of the source.
# Details: cited from earlier work; for deaths (animals died/treated) / STD/LD10: Rats; for STD/LD10: IV bolus
smiles,measurement,setting,value
COc1cc(OC)c(/C=C/S(=O)(=O)Cc2ccc(OC)c(NCC(=O)O)c2)c(OC)c1 [ON-01910-Na],deaths (animals died/treated),"2x/wk, 4 wk, 900 mg/m^2",1/24
same,deaths (animals died/treated),"2 x/wk, 4 wks, 2100 mg/m^2",5/9
same,STD/LD10,"2 x/wk, 4 wks",< 2100 mg/m^2
same,deaths (animals died/treated),"7 day repeat dosing, 1200 mg/m^2",2 of 13 and 2/13
same,deaths (animals died/treated),"28 day repeat, 450 mg/m^2",1/36
same,deaths (animals died/treated),"28 day repeat, 900 mg/m^2",11/36
same,STD/LD10,28 day repeat,< 900 mg/m^2
same,deaths (animals died/treated),"single dose, 3000 mg/m^2",9 of 11 and 9/11
same,STD/LD10,single dose,< 3000 mg/m^2
same,"myelotoxicity, neuropathy, or cardiotoxicity",rat and dog toxicology studies,"no evidence of significant myelotoxicity, neuropathy, or cardiotoxicity"
